# Columns and labels:
# Details in all cases: 72 h
# HepG2 [1] = experiment: relative viability EC50 (midpoint between 100% and the lowest measured viability); higher = less toxic
# Caco-2 [2] = experiment: as above
# U2OS [3] = experiment: as above
# HepG2 [4] = experiment: drug sensitivity score (DSS) for viability; higher = more toxic; extreme values may be limits of the assay
# Calu-3 [5] = experiment: as above
# Caco-2 [6] = experiment: as above
# U2OS [7] = experiment: as above
# HepG2 [8] = experiment: cell viability relative to DMSO; higher = less toxic
# Calu-3 [9] = experiment: as above
# Caco-2 [10] = experiment: as above
# U2OS [11] = experiment: as above
smiles,measurement,setting,value
N/C(=N/CCc1ccc(I)cc1)SCCCc1cnc[nH]1 [iodophenpropit],relative viability EC50,HepG2 [1],3.29 µM
same,relative viability EC50,Caco-2 [2],> 10 µM
same,relative viability EC50,U2OS [3],> 10 µM
same,drug sensitivity score,HepG2 [4],2.6
same,drug sensitivity score,Calu-3 [5],1.2
same,drug sensitivity score,Caco-2 [6],0
same,drug sensitivity score,U2OS [7],0.3
same,cell viability,HepG2 [8]; 1 nM,103%
same,cell viability,HepG2 [8]; 10 nM,109%
same,cell viability,HepG2 [8]; 100 nM,99.1%
same,cell viability,HepG2 [8]; 1000 nM,101%
same,cell viability,HepG2 [8]; 10000 nM,48.2%
same,cell viability,Calu-3 [9]; 1 nM,94.7%
same,cell viability,Calu-3 [9]; 10 nM,103%
same,cell viability,Calu-3 [9]; 100 nM,100%
same,cell viability,Calu-3 [9]; 1000 nM,102%
same,cell viability,Calu-3 [9]; 10000 nM,69.3%
same,cell viability,Caco-2 [10]; 1 nM,100%
same,cell viability,Caco-2 [10]; 10 nM,99.1%
same,cell viability,Caco-2 [10]; 100 nM,99.6%
same,cell viability,Caco-2 [10]; 1000 nM,95.4%
same,cell viability,Caco-2 [10]; 10000 nM,99%
same,cell viability,U2OS [11]; 1 nM,99.9%
same,cell viability,U2OS [11]; 10 nM,94.4%
same,cell viability,U2OS [11]; 100 nM,102%
same,cell viability,U2OS [11]; 1000 nM,97.9%
same,cell viability,U2OS [11]; 10000 nM,86.1%

# Reference: the supplement of paper PMC13380429
